Binding of CDR-mutated scFvs to a peptide of the spike HR2 region

Values reported by Li et al. 2023, doi:10.1038/s41467-023-39022-2 (FLAb copy).

All variants were tested on one target, the spike HR2 peptide PDVDLGDISGINAS (SARS-CoV-2).

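The starting antibody came from a phage panning campaign against this peptide. This is the validation round: designs drawn from the data on random variants, tested in the same kind of assay. Several design methods are mixed in this list. In AlphaSeq, yeast of one mating type display the scFv and yeast of the other type display the target. The frequency of each diploid, read from paired DNA barcodes, reflects how well the two displayed proteins bind. A regression on co-assayed BCL2-family reference pairs converts the normalised counts of each replicate to an apparent Kd. Each pool was mated in six replicate cultures.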

Ab-14 is the parent antibody, in scFv form: VH, then a (GGGGS)3 linker, then VL. The heavy chain is unchanged in all variants.
VH: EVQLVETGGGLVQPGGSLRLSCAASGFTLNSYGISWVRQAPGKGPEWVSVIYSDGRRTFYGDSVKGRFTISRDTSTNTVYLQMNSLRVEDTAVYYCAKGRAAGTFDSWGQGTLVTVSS
VL: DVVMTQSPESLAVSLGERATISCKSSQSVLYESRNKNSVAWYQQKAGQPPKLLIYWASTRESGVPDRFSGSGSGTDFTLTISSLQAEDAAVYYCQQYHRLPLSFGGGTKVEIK

Variants are written as CDR1, CDR2 and CDR3 of the light chain (limits as in the source). Parent: KSSQSVLYESRNKNSVA, WASTRES, QQYHRLPLS.
Variants here have at most six changes.
The Kd shown is the geometric mean over detected replicates; a lower Kd is a better binder.
"nd" marks a missing value. The strain was present, yet no cells mated with the target were sequenced in any replicate, which points to weak or no binding.
Values of this round are not directly comparable with the first-round values of the same sequences.
In the paper, a design with two or fewer of six values counts as a poor binder.
As a blank, each scFv also met three strains without target: over all light chain designs, 4% of these pairings were detected, typically at 430 nM and seldom below 38 nM. Also given: how often the same scFv was detected with the empty control strains.
Of ten entries with the parent sequence, four were seen in most replicates (averages 2.2 nM to 240 nM), three in one and three in none, so single entries are noisy.

CDR-L1,CDR-L2,CDR-L3,apparent Kd,seen in,signal with controls
KSSISVLYESGNKNSVA,HASTRED,QQYHRLPLS,13 nM,6 of 6,0 of 18
KLSQSELYESRNKNSVA,GASTRCE,QQYHRLPLS,560 pM,6 of 6,1 of 18
KLMQSVEYESRNKNSVA,NASTRES,QQYHRLPLS,750 pM,6 of 6,1 of 18
KLEQSVLYEDRNKNSVA,NASTRES,QQYHRLPLS,320 pM,6 of 6,5 of 18
KLQQSVCYESRNKNSVA,NASTRES,QQYHRLPLS,1.5 nM,6 of 6,0 of 18
KSSQSDLYESRNKNSVA,GASTRES,QAYHRLPLS,3.2 nM,6 of 6,3 of 18
KSSQSVLYESNNKNSVA,NASTREM,QQYHRLPLS,11 nM,5 of 6,0 of 18
KSSQSRLYESRNKNSVA,WASTRES,QQYHRLPLS,25 nM,2 of 6,0 of 18
KLQQSWLYESRNKNNVA,GASTRES,QQYHRLPLS,280 pM,6 of 6,0 of 18
KLSQSVLYEDRNKNSVA,NASTREM,QQYHRLPLS,440 pM,6 of 6,1 of 18
KLSQSVLYESRNKNNVA,SASTRES,QQYHRLPLS,380 pM,6 of 6,1 of 18
KLSQSWLYESRNKNSVA,SASQRES,QQYHRLPLS,460 pM,6 of 6,0 of 18
KLSQSVHYESRNKNSVA,NASTRES,QQYHRLPLS,1.5 nM,6 of 6,1 of 18
KVYQSHLYESRNKNSVA,NASQRES,QQYHRLPLS,1.0 nM,6 of 6,0 of 18
KLSQQWLYESRNKNSVA,NASQRES,QQYHRLPLS,1.1 nM,6 of 6,0 of 18
KSCQSVLYESRNPNSVA,WASTRES,QQYHRLPLW,94 nM,2 of 6,0 of 18
KSSQSVLYEVRNKNSVA,AASTRES,QQYHRLPLF,250 nM,1 of 6,0 of 18
KLSQSVEYESRDKNAVA,DASTRMS,QQYHRLPLS,660 pM,6 of 6,2 of 18
KMSQSVLVSSRNKNSVA,WASTRES,QQYHRLPLS,10 nM,4 of 6,0 of 18
KLSQSVWYESRNKNSVA,GASTRES,QQYHRLPLS,910 pM,6 of 6,0 of 18
KSSQSVLDESRNKNSVA,SASTREQ,QQYHRLPLS,1.6 nM,6 of 6,0 of 18
FLSQSVLYESRNKNSVA,NASQRES,QQYHRLPLS,480 pM,6 of 6,0 of 18
KNSQSVLYESRNKNSVA,NASTRES,QQYHRLPLS,310 pM,6 of 6,1 of 18
KSSQSVLYEVTNKNSVA,WASTRES,QQMHGLPLS,nd,0 of 6,0 of 18
KSSQSVCFESRNKNSVA,DASTRES,QQYHRLPLS,2.2 nM,6 of 6,1 of 18
KLQQSHLYESRNKNSVA,NASTREV,QQYHRLPLS,3.9 nM,6 of 6,1 of 18
KQSQSVLYESRNKNSVA,QASTRES,QQVHRLPLS,nd,0 of 6,0 of 18
KSPQSVLYDSRNKNSVA,HASTRES,QQYHRLPCS,4.0 nM,6 of 6,3 of 18
KSSQSELFESRNKNSVA,DASTREA,QQYHRLPLS,440 pM,6 of 6,1 of 18
KLSQSVLYGSRNKNSVA,HASTRES,QQYHRLPLS,2.2 nM,6 of 6,2 of 18
KSSQSVLGESRNCNSVA,EASTRES,QQYHRLPLS,1.3 nM,6 of 6,0 of 18
KLPQSVLYESRNKNSVA,SGSTRES,QQYHRLPLS,530 pM,6 of 6,0 of 18
KSSQSVLYESLNFNSVA,HASTRES,QQYHRLPES,110 nM,6 of 6,1 of 18
KSSQSVLFESRNKNSVA,DASTMES,QQYHRLPLS,12 nM,5 of 6,0 of 18
KQSISYLGEKRNKNSVA,EASTRES,QQYHRLPLS,840 pM,6 of 6,0 of 18
KSSQSVLPEWRNKNSVA,WASTRES,QQYHRLPLY,470 nM,1 of 6,2 of 18
KLSQSVLYESRNKNAVA,DASQRES,QQYHRLPLS,360 pM,6 of 6,0 of 18
KLSQSELYESRNKNSVA,EASHRES,QQYHRLPLS,340 pM,6 of 6,0 of 18
KSSQSVLYESRNKNSVA,WASTRES,QWYHRLPLS,nd,0 of 6,1 of 18
KLDGSDQYESRNKNSVA,DASTRES,QQYHRLPLS,950 pM,6 of 6,0 of 18
KSSQSVLYESRNKNSVA,RGSTRES,QQCHRLPLS,nd,0 of 6,0 of 18
VFSQSVLYESRTKNSVA,NASTRES,QQYHRLPLS,1.8 nM,6 of 6,0 of 18
KSSISQLGESRNKNSVA,EASTRES,QQYHRLPLS,3.2 nM,6 of 6,0 of 18
KLRQSTLYESRNKNEVA,WASTRES,QQYHRLPLS,110 nM,6 of 6,0 of 18
HSSPSVLYESRNKNSVA,SASTRES,QQYHRLPLS,3.2 nM,6 of 6,0 of 18
KSPQSHLYGSRNKNSVA,EASERES,QQYHRLPLS,3.4 nM,6 of 6,0 of 18
KQSQSLLYESRNKNSVA,KASTRES,NQYHRLPLS,180 nM,1 of 6,0 of 18
KSSQSVLYESENKNSVA,WASHRES,QQYHRLPLS,13 nM,6 of 6,1 of 18
KDSQSLLYESRNKNSVA,WSSTPES,QQYHRLPLS,nd,0 of 6,0 of 18
KSSQSVLYEPRNKNSVA,DASTRES,QQYHRLPLS,960 pM,6 of 6,1 of 18
SFSQSVLYEPRTKNSVA,NASTRES,QQYHRLPLS,360 pM,5 of 6,0 of 18
KLSQSVDYESRNKNAVA,AASTRES,QQYHRLPLS,1.3 nM,6 of 6,1 of 18
KVPQSDLYESRNKNSVA,EASTRES,QQYHRLPLS,560 pM,6 of 6,0 of 18
KLMQSHLYESRNKNSVA,NASQRES,QQYHRLPLS,3.3 nM,6 of 6,0 of 18
KYSQSVLYESRNKNSVA,GASTRES,QQYHRLPLS,590 pM,6 of 6,0 of 18
KWRQSVLYESRNKISVA,WASTRES,QQYVRLPLS,nd,0 of 6,0 of 18
KLRQSTLYESRNKNSVA,WASTRES,QQYHRLILS,25 nM,6 of 6,0 of 18
KSSQSVLYESRNDNSVA,KASTRES,QQYIRLPLS,4.3 nM,6 of 6,1 of 18
KSSQDVLYESRNKNSVA,WAKTRES,QQYHILILD,nd,0 of 6,0 of 18
KSSQSVLMESRNKNSVA,SASTRES,QQYHRLPLS,20 nM,6 of 6,1 of 18
KSQQGVLYQSRNKNSVA,GASTRES,QQYHRLPLS,13 nM,6 of 6,0 of 18
KFSQSWLYESRNKNSVA,EASTRES,QQYHRLPLS,700 pM,6 of 6,1 of 18
KLSQSWLYESRNKNNVA,QASQRES,QQYHRLPLS,370 pM,6 of 6,0 of 18
KSSQSVLYESRNKNSVA,HASTREH,VQYHRLPLS,nd,0 of 6,0 of 18
KISQSELEESRNKNSVA,WATVREV,QQYHRLPLS,1.9 nM,6 of 6,1 of 18
KLPQSWLYESRNKNSVA,SASTRES,QQYHRLPLS,3.2 nM,6 of 6,2 of 18
KISQSVLAESRNKNSVA,WASTRES,QTYHRLPLS,3.9 nM,6 of 6,1 of 18
KSDQSVLYESRNGNSVA,WASERES,QQYHRLPLS,nd,0 of 6,0 of 18
KHSQSVLYESRNKNSVA,AALTRHS,QQYCRLPLS,nd,0 of 6,0 of 18
KSSQSVSYESRNKNSVA,SASTRPS,QQYMRLPLS,830 pM,6 of 6,0 of 18
RSSQSVLYESRNKNSVA,GASTRES,QQYHRNPLS,nd,0 of 6,1 of 18
KFLQSVLYESRNKNSVA,HASTRED,QQYHRLPLS,910 pM,6 of 6,0 of 18
KSSHSVLYESRNKNSIA,GASIRES,QDQHRLPLS,86 nM,1 of 6,1 of 18
KLSQQWLYESRNKNSVA,SASTREE,QQYHRLPLS,490 pM,6 of 6,1 of 18

11 of these entries, quoted again:

CDR-L1	CDR-L2	CDR-L3	apparent Kd	seen in	signal with controls
KLSQQWLYESRNKNSVA	NASQRES	QQYHRLPLS	1.1 nM	6 of 6	0 of 18
KLRQSTLYESRNKNSVA	WASTRES	QQYHRLILS	25 nM	6 of 6	0 of 18
KLSQSVDYESRNKNAVA	AASTRES	QQYHRLPLS	1.3 nM	6 of 6	1 of 18
KLSQSVHYESRNKNSVA	NASTRES	QQYHRLPLS	1.5 nM	6 of 6	1 of 18
KFLQSVLYESRNKNSVA	HASTRED	QQYHRLPLS	910 pM	6 of 6	0 of 18
KISQSVLAESRNKNSVA	WASTRES	QTYHRLPLS	3.9 nM	6 of 6	1 of 18
KQSQSLLYESRNKNSVA	KASTRES	NQYHRLPLS	180 nM	1 of 6	0 of 18
KLSQSELYESRNKNSVA	EASHRES	QQYHRLPLS	340 pM	6 of 6	0 of 18
KSSQSVLYESNNKNSVA	NASTREM	QQYHRLPLS	11 nM	5 of 6	0 of 18
KVYQSHLYESRNKNSVA	NASQRES	QQYHRLPLS	1.0 nM	6 of 6	0 of 18
KLMQSVEYESRNKNSVA	NASTRES	QQYHRLPLS	750 pM	6 of 6	1 of 18